From US20160318933A1, “FUSED PYRAZOLE DERIVATIVE” (SUMITOMO DAINIPPON PHARMA CO., LTD., priority 2013, published 2016)

The chains behind the UniProt entries cited, without tags or fusion partners.
UniProt P21917, whole entry: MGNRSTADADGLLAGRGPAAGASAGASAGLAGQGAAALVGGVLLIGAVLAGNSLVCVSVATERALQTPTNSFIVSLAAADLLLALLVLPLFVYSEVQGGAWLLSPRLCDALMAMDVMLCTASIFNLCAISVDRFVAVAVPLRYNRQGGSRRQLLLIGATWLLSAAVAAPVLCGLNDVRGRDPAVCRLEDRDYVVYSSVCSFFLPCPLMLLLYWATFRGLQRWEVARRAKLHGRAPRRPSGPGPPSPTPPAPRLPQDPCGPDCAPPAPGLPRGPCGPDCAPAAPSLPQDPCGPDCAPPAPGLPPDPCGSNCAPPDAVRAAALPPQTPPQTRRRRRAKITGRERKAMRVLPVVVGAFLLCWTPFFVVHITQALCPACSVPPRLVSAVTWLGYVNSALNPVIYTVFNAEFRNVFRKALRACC

Molecular target: human brain-derived dopamine D4 receptor (Homo sapiens, UniProt P21917)
Experiment: Agonistic activity in G protein dependent pathway of dopamine D4 receptor (aequorin intracellular calcium luminescence, FDSS)
Format: cell-based
Settings: CHO-K1 or HEK293 cells transfected with D4 receptor; for Maximal activity on D4 receptor (%): Emax, luminescent signal with 1 μM dopamine = 100%, without compound = 0%; for EC50: concentration required to achieve a 50% response of Emax

Maximal activity on D4 receptor (%) | EC50 | SMILES
61% | 85 nM | Cc1cccnc1-c1cc2n(n1)CCN(Cc1ccc(F)nc1)C2
64% | 28 nM | Cc1ccc(CN2CCn3nc(-c4ccccn4)c(C)c3C2)cn1
52% | 42 nM | Cc1ccc(CN2CCn3nc(-c4ccccn4)c(Cl)c3C2)cc1
